From patent US11448657B2, “Methods and kits for assessing Heparanase procoagulant activity, compositions comprising Heparanase, and methods for the treatment of coagulation-related disorders” (RAMBAM MED-TECH, priority 2011, dated 2022)

Test: Water solubility of the peptides
Assay type: physicochemical

Substance: Ac-Ala Glu Ile Cys Leu Leu Pro Leu Asp Tyr Gly Pro Cys Arg [Peptide 6-Ac]
- water solubility compared to non-acetylated counterpart: more water soluble than their corresponding non acetylated counterparts
